The numbers were not newly measured in patent US20090253721A1, “Combined treatment with radiation and an epidermal growth factor receptor kinase inhibitor” (priority 2004, published 2009), which cites them from elsewhere.

For this data set, the system named is advanced H&N cancer. As to conditions: cited from earlier work.

For cetuximab: EGFR monoclonal antibody, under “at 2 yrs, favoring the cetuximab arm, log rank p=0.02”, the “improvement in locoregional disease control” value was 8%. In addition, the “improvement in overall survival” value (at 3 yrs, favoring the cetuximab arm, log rank p=0.02) is on record as 13%. Moreover, the “median survival versus radiation alone” value (cetuximab with radiation) is reported as “near doubling”.
